The values below come from PubChem BioAssay AID2825 (Sanford-Burnham Center for Chemical Genomics, 2010).

The structures appear in SMILES notation. The entries are a selection whose mix differs from that of the whole data set. Some salts or complexes appear as unconnected parts, following the source record. Calls of active or inactive are those of the source.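 Rule for the calls: active = inhibition of 50% or more; inactive = inhibition below 50%.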

The assay in a line: blockers of yeast NLRP3/ASC/caspase-1 reporter – luminescence, uHTS, primary screen (AID 2825).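 Note: plate controls were induced DMSO wells for no effect and uninduced yeast grown without galactose for full effect.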 The following applies: Yeast reconstituted NLRP3/ASC/caspase-1, beta-gal luminescence, 24 h; at 10 µM; active compounds read high.
Broadly, the inhibition is the change of the read-out against control, counted positive when it falls. Regarding `CP(=O)(Nc1ccccc1)Oc1ccc(F)cc1` (configuration not stated), the inhibition is inactive: 7.43%.
As for `CCCCCOc1ccc(NP(C)(=O)Oc2ccc(Cl)cc2Cl)cc1` (configuration not stated), the inhibition is inactive: 26.1%.
In the case of `O=[N+]([O-])c1cc([N+](=O)[O-])c(OC2CCCCC2O)c([N+](=O)[O-])c1` (configuration not stated), the inhibition is inactive: 27.7%.
Next, `CCN(CC)CCCOC(=O)C(O)(c1ccccc1)C1CCCCC1` (configuration not stated): inactive: 12.1%; `CCOC(=O)c1ccc(NP(C)(=O)Oc2ccc(F)cc2)cc1` (configuration not stated): inactive: 11.2%.
Consider `COc1ccc(OP(C)(=O)Nc2ccc(SC(F)(F)F)cc2)cc1` (configuration not stated), for which the inhibition is inactive: 16.3%.
Next, `COc1ccc2c(c1O)-c1c(O)c(OC)cc3c1[C@H](C2)[N+](C)(C)CC3.O=[N+]([O-])c1cc([N+](=O)[O-])c([O-])c([N+](=O)[O-])c1[O-]`: inactive: 16.2%.
The result for `O=C(OC1CN2CCC1CC2)c1ccc([N+](=O)[O-])cc1` (configuration not stated) reads inactive: 14.8%; that for `O=C(OCCN1CCN(CCOCc2ccccc2)CC1)C(O)(c1ccccc1)c1ccccc1`, inactive: 24.2%.
Turning to `CP(=O)(Nc1ccccc1F)Oc1ccccc1` (configuration not stated), the inhibition was inactive: 17.7%.
The result for `CC(C)c1ccc(OP(C)(=O)Nc2ccc(SC(F)(F)F)cc2)cc1` (configuration not stated) reads inactive: -0.431%.
Take `Cc1ccccc1NP(C)(=O)Nc1ccccc1C`: the inhibition is inactive: 6.68%.
The result for `CP(=O)(Nc1ccc2c(c1)OCCO2)Oc1ccccc1` (configuration not stated) reads inactive: 8.88%.
As for `CCOP(C)(=S)SCC(=O)NC(C)(CC)C(=O)O` (configuration not stated), the inhibition was inactive: 11.9%.
The result for `CP(=O)(Nc1ccc(SC(F)(F)F)cc1)Oc1ccc(F)cc1` (configuration not stated) reads inactive: 16.8%.
Next, `O=[N+]([O-])c1cc([N+](=O)[O-])c(NCC2CCS(=O)(=O)C2)c([N+](=O)[O-])c1` (configuration not stated): inactive: 21.6%.
Turning to `CN(C)CCOC(=O)C(O)(c1ccccc1)C1CCCCC1` (configuration not stated), the inhibition is inactive: 8.37%.
As to `COc1ccc(NP(C)(=O)Oc2ccccc2OC)cc1` (configuration not stated), the inhibition is inactive: 9.9%.
Next, `COc1ccc(OP(C)(=O)Nc2cccc(Br)c2)cc1` (configuration not stated): inactive: 5.24%; `CCOC(=O)c1ccc(NP(C)(=O)Oc2ccc(Cl)cc2)cc1` (configuration not stated): inactive: 8.34%; `CP(=O)(OC12CC3CC(CC(C3)C1)C2)OC12CC3CC(CC(C3)C1)C2`: inactive: 4.34%.
Consider `Nc1ccc2c(ccc3cccnc32)n1.O=[N+]([O-])c1cc([N+](=O)[O-])c(O)c([N+](=O)[O-])c1`, for which the inhibition was inactive: -5.47%.
In the case of `CN(C)C(=O)c1c([N+](=O)[O-])cc([N+](=O)[O-])cc1[N+](=O)[O-]`, the inhibition was inactive: 22.4%.
Take `CC(C)(C)c1ccc(OP(C)(=O)O)cc1`: the inhibition was inactive: 14.1%.
As for `COc1ccccc1OP(C)(=O)Nc1ccccc1Br` (configuration not stated), the inhibition was inactive: 6%.
Next, `CP(=O)(Nc1ccc(Cl)cc1)Oc1ccc(F)cc1` (configuration not stated): inactive: 24.1%.
In the case of `COc1ccccc1OP(C)(=O)Nc1c(C)n(C)n(-c2ccccc2)c1=O` (configuration not stated), the inhibition is inactive: 0.724%.
As for `O=C(OCCCN1CCCC1)C(O)(c1ccccc1)C1CCCCC1` (configuration not stated), the inhibition is inactive: 17.2%.
Next, `CP(=O)(Oc1ccccc1)N1CCOC1=O` (configuration not stated): inactive: 9.92%; `CCc1ccc(OP(C)(=O)Nc2cccnc2)cc1` (configuration not stated): inactive: -2.25%; `CCN(CC)CC(O)COC(=O)C(O)(c1ccccc1)C1CCCCC1` (configuration not stated): inactive: -21.4%.
As for `COc1ccc(OP(C)(=O)Nc2ccc(Br)cc2)cc1` (configuration not stated), the inhibition is inactive: 0.773%.
The result for `CP(=O)(Nc1ccccn1)Oc1ccccc1` (configuration not stated) reads inactive: 1.62%; that for `COc1ccccc1OP(C)(=O)Nc1ccc(C)cc1C` (configuration not stated), inactive: 15.7%.
The result for `CCc1ccc(OP(C)(=O)O)cc1` reads inactive: 3.17%; that for `O=[N+]([O-])c1cc([N+](=O)[O-])c(Nc2ccccn2)c([N+](=O)[O-])c1`, inactive: 39.8%; that for `Cc1c(NP(C)(=O)Oc2ccc(C(C)C)cc2)c(=O)n(-c2ccccc2)n1C` (configuration not stated), inactive: 10.5%.
The result for `COc1ccc(OP(C)(=O)Nc2ccccn2)cc1` (configuration not stated) reads inactive: 8.72%.
Turning to `CN(C)CCOC(=O)C(O)(c1ccccc1)C1CCCC1` (configuration not stated), the inhibition is inactive: -3.69%.
As to `COc1ccccc1OP(C)(=O)Nc1ccc(Br)cc1` (configuration not stated), the inhibition was inactive: -0.614%.
The result for `CP(=O)(OCCOc1ccccc1)OCCOc1ccccc1` reads inactive: 14%.
On to `CP(=O)(Nc1ccc(Cl)cc1Cl)Oc1ccccc1` (configuration not stated), for which the inhibition is inactive: 15.7%.
Next, `Cc1nc2ccc3ccccc3c2o1.O=[N+]([O-])c1cc([N+](=O)[O-])c(O)c([N+](=O)[O-])c1`: inactive: 23.9%.
The result for `COc1ccccc1OP(C)(=O)Nc1ccc(C)c(C)c1` (configuration not stated) reads inactive: 5.98%; that for `COc1ccc(OP(C)(=O)Nc2ccccc2Br)cc1` (configuration not stated), inactive: 1.86%; that for `Cc1cc(C)cc(OP(C)(=O)Nc2cccc(C(F)(F)F)c2)c1` (configuration not stated), inactive: 4.84%.
Turning to `Cc1cc(C)cc(OP(C)(N)=O)c1` (configuration not stated), the inhibition is inactive: -16.5%.
Next, `COc1ccccc1OP(C)(=O)Nc1cc(Cl)ccc1C` (configuration not stated): inactive: 8.05%; `COc1ccc(OP(C)(=O)Nc2cccc(F)c2)cc1` (configuration not stated): inactive: 6.35%; `COc1ccccc1OP(C)(=O)Nc1ccc(C)cc1` (configuration not stated): inactive: 0.849%.
On to `Cc1ccc(NP(C)(=O)Oc2ccccc2)c(C)c1` (configuration not stated), for which the inhibition is inactive: 23.4%.
Turning to `CCOC(=O)c1ccc(NP(C)(=O)Oc2ccccc2)cc1` (configuration not stated), the inhibition is inactive: 10.8%.
For `CC(C)(C)c1ccc(OP(C)(=O)Nc2ccc(SC(F)(F)F)cc2)cc1` (configuration not stated), the inhibition is inactive: 4.68%.
The result for `Cc1cccc(C)c1OP(C)(N)=O` (configuration not stated) reads inactive: -5.42%; that for `O=[N+]([O-])c1cc([N+](=O)[O-])c(Nc2cccnc2)c([N+](=O)[O-])c1`, inactive: 22.8%.
Turning to `CCN(CC)CCCOC(=O)C(O)(c1ccccc1)c1ccccc1`, the inhibition is inactive: 8.5%.
Consider `CP(=O)(Nc1ccccn1)Oc1ccc(Cl)cc1` (configuration not stated), for which the inhibition was inactive: 10.5%.
The result for `CCOC(=O)c1ccc(NP(C)(=O)Oc2ccc(OC)cc2)cc1` (configuration not stated) reads inactive: 16.3%.
Consider `O=[N+]([O-])c1cc([N+](=O)[O-])c(O)c([N+](=O)[O-])c1.c1ccc(Oc2ccncc2)cc1`, for which the inhibition is inactive: 18.7%.
Regarding `CCOP(C)(=S)SCC(=O)NC(C)C(=O)O` (configuration not stated), the inhibition was inactive: 7.67%.
Next, `CCc1ccc(OP(C)(=O)N2CCN(c3ccc([N+](=O)[O-])cc3)CC2)cc1` (configuration not stated): inactive: 36.9%.
On to `CP(=O)(NC(=O)Nc1ccccc1)Oc1ccccc1` (configuration not stated), for which the inhibition was inactive: 7.16%.
